Protein sequences, listed by entry. Tags and fused reporters are not part of them. Residues count along the entry.
UniProt C7FF04, 1-392 limits assumed: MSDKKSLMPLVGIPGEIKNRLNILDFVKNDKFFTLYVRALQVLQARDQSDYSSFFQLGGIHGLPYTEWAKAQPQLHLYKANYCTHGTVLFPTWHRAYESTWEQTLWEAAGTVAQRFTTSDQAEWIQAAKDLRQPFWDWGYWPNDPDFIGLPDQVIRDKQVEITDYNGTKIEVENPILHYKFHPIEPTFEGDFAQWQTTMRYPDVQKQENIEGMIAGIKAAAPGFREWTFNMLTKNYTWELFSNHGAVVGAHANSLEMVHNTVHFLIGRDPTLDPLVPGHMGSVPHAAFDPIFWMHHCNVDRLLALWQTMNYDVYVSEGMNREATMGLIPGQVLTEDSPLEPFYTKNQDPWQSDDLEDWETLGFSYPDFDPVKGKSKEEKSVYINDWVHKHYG

According to US10857082B2, “Diarylalkanes as potent inhibitors of binuclear enzymes” (Unigen, Inc., priority 2004, dated 2020):

Assays:
[1] = molecular target: mushroom tyrosinase (Agaricus bisporus, UniProt C7FF04); experiment: Tyrosinase inhibition assay (L-DOPA to dopachrome, absorbance at 450 nm); type: biochemical
[2] = tested on: B16 F1 cells; experiment: Inhibition of melanin production in B16 F1 cells without β-MSH induction (endogenous)
Protocol: (§1) The inhibition of melanin production was evaluated using two different assays. In the first assay, the inhibition of melanin production was evaluated without induction by β-MSH; whereas in the second assay the inhibition of melanin production was measured with β-MSH induction in cell culture medium. Briefly, B16 F1 cells (ATCC #CRL-622) were grown to confluency and then seeded at 40,000 cells per well. The cells were allowed to attach overnight at 37° C. in a humidified environment containing 5% CO2. On day 2, inhibitors were added to the cells at concentrations ranging from 0-1000 μM in triplicate and allowed to incubate for four days. The amount of β-MSH required to induce melanin formation was determined by the addition of hormone at concentrations ranging from 0-1000 nM in ten-fold increments. Once the proper β-MSH concentration was determined, cells were seeded as above, allowed to attach overnight and then co-incubated with tyrosinase inhibitors at concentrations ranging from 0-1000 μM. Color development was visually monitored each morning. After the development of color, 200 μl of cell supernatant was removed from each well and absorbance was measured at 450 nm. The resulting readings were used to determine the IC50 for melanin formation in the cell assay with and without β-MSH induction. […]

[3] = tested on: B16 F1 cells; experiment: Inhibition of melanin production in B16 F1 cells with β-MSH induction; conditions: read-out: IC50 for melanin formation, induced experiment
Protocol: as §1

COc1ccc(CCCc2cc(O)ccc2O)c(OC)c1C
Tyrosinase inhibitory activity in words [1]: strong tyrosinase inhibitory activity
IC50 ([1]; read-out: IC50 for inhibition of tyrosinase, listed as IP302b): 1.2 µM
Inhibition of melanin production relative to kojic acid, in words ([2]; B-16 cell line model, with and without β-MSH induction): at least as good, if not better inhibitors than kojic acid
IC50 ([2]; read-out: IC50 for melanin formation, endogenous experiment, B16 F1 cells, without β-MSH induction): 5.2 µM
IC50 [3]: 34 µM
